Measurements reported in US10149840B2, “OCT3 activity inhibitor containing imidazopyridine derivative as active component, and OCT3 detection agent” (SHIN NIPPON BIOMEDICAL LABORATORIES, LTD., priority 2012, dated 2018).

Amino acid sequences for entries named in this document (tags omitted).
UniProt O75751, whole entry: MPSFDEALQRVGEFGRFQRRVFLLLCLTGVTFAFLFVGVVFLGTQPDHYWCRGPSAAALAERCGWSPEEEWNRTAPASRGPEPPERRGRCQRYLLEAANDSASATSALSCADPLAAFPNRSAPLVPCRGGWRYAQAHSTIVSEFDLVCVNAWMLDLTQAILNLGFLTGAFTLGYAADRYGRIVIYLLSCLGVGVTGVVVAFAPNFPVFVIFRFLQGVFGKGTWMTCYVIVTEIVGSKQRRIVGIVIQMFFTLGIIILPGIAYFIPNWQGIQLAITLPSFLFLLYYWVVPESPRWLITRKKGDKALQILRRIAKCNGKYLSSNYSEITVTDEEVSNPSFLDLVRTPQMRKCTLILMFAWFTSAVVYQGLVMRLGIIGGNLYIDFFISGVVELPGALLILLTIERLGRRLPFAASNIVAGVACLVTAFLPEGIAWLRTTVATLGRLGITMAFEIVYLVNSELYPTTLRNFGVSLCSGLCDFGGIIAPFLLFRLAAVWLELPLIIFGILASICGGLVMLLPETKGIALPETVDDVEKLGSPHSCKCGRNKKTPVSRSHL

Target: human organic cation transporter 3 (hOCT3) (Homo sapiens (Human), UniProt O75751)
Experiment: histamine uptake experiment in HEK293 cells expressing hOCT3
Type: cell-based
Conditions: for OCT3 inhibition ratio (%) / Histamine uptake ratio with respect to control (%): 30 μM test substance; for OCT3 inhibition ratio (%): 100 minus histamine uptake ratio; for Histamine uptake ratio with respect to control (%): [3H]histamine 100 nM, HEK293-hOCT3
Experimental: In order to measure an activity to inhibit substrate uptake by the OCT3 in each compound, a histamine uptake experiment was performed as follows. […] In this experiment, HEK293 cells, which are human embryonic kidney cell lines expressing a human organic cation transporter 3 (hOCT3), were used. The HEK293 cells were seeded at 1.5×10^5 cells/well in a 24-well plate and cultured overnight in a carbon dioxide incubator. […] After a cell culture medium was removed, a pretreatment for 5 minutes was performed with 1 mL of the HBSS-HEPES solution. Thereafter, the test substance and [3H]histamine (final concentration: 100 nM) were added to the cells and allowed to react for 1 minute at room temperature. After completion of the reaction, the reaction was stopped with the ice-cooled HBSS-HEPES solution, and extracellular fluid was aspirated by an aspirator. The cells were then washed two times with the HBSS-HEPES solution. After washing, the cells were lysed in a 0.5 M sodium hydroxide aqueous solution. An amount of histamine present in the cells was determined by measuring a radioactivity in the cell lysate with a liquid scintillation counter. […] A Histamine uptake amount per protein content when there is no uptake inhibitor is regarded as 100% of a histamine uptake ratio (control), and the histamine uptake ratio (%) in the presence of 30 μM of the test substance was calculated.

Cc1ccn2cc(C(=O)NCCSCc3ccccc3F)nc2c1
OCT3 inhibition ratio (%): 84.6%
Histamine uptake ratio with respect to control (%): 15.4%
IC80 (OCT3 inhibition): 30 µM
IC50 (read-out: OCT3 inhibitory activity, IC50 value, suppression curves at 10^−7 to 10^−3 M): 8.2 µM

CCOc1ccccc1-n1nnnc1SCc1cn2cc(C)ccc2n1
OCT3 inhibition ratio (%): 61.3%
Histamine uptake ratio with respect to control (%): 38.7%
